Patent US6774109B2, “Inhibition of amylin release” (Societe de Conseils de Recherches et d'Applications …, priority 1995, dated 2004)

Biological target: T1, rat SSTR-5 (Rattus norvegicus, UniProt P30938)
T1 construct: Crude membranes were prepared by homogenization of rat olfactory bulb cells; tissue Zivic-Miller Laboratory, Inc; host or cells: rat olfactory bulb
T1 sequence (P30938 1-363): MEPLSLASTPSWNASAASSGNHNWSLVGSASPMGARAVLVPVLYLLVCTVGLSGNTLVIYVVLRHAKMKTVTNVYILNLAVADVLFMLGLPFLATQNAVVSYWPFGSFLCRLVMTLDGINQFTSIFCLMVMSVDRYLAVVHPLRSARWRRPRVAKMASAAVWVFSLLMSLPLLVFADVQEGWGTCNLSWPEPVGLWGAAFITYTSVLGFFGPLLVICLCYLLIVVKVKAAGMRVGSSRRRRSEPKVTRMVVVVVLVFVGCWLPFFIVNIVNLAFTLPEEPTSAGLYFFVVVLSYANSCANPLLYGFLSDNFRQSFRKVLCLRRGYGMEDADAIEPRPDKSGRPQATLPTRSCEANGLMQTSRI
Assay: Rat SSTR-5 binding assay ([125I-Tyr11]somatostatin-14, rat olfactory bulb membranes)
Settings: read-out: Ki SSTR-5, radioligand [125I-Tyr11]somatostatin-14 0.05 nM
Protocol: Crude membranes were prepared by homogenization of rat olfactory bulb cells (Zivic-Miller Laboratory, Inc., Zellenople, Pa.) in 20 ml of ice-cold 50 mM Tris-HCl with a POLYTRON homogenizer (setting 6, 15 sec). Buffer was added to obtain a final volume of 40 ml, and the homogenate was centrifuged in a Sorval SS-34 rotor at 39,000 g for 10 min at 0-4° C. The resulting supernatant was decanted and discarded. The pellet was rehomogenized in ice-cold buffer, diluted, and centrifuged as before. The final pellet was resuspended in the 10 mM Tris HCl and held on ice for the receptor binding assay.
The final assay volume was 0.3 ml. The incubations were terminated by rapid filtration through GF/C filters (pre-soaked in 0.3% polyethylenimine for 30 min) using a Brandel filtration manifold. Each tube and filter were then washed three times with 5 ml aliquots of ice-cold buffer.

Somatostatin-14 [reference compound]
Ki: 0.47 nM
